Measured values published in patent US11814388B1, “Substituted pyrrolo[2,3-d]pyrimidines and pyrazolo[3,4-d]pyrimidines as inhibitors for multi-resistant cancers” (priority 2020, dated 2023).

By UniProt entry, the sequences of proteins in these tests, tags left out.
UniProt Q96GD4, whole entry: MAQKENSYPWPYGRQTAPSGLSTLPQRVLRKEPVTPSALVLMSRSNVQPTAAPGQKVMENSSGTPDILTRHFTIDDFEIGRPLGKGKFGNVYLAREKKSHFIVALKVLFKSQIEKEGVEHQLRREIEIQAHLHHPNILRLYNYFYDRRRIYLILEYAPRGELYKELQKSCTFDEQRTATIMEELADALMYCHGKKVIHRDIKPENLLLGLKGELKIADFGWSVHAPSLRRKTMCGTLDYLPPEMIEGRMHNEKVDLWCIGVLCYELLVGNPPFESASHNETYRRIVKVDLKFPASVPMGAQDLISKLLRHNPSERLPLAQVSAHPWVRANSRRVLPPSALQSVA

Molecular target: AURKB (Homo sapiens (Human), UniProt Q96GD4)
Experiment: Kinomescan KdELECT platform (DiscoverX), AURKB
Assay type: binding

SMILES	Kd [µM]
O=C(Nc1ccc(Nc2ncnc3[nH]ccc23)cc1)c1ccccc1 [Compound 5]	0.47
c1ccc(COc2ccc(Nc3ncnc4[nH]ccc34)cc2)cc1 [Compound 9]	9.8
